# According to patent publication US10456407B2, “Combination therapy for treating cancer” (Epizyme, Inc., priority 2015, dated 2019):
# Experiments:
# OCI-Ly19 cells = experiment: RT2 Glucocorticoid signaling PCR array, OCI-LY19 (Table 4a, printed OCT) cell line; type: cell-based; details: compared to DMSO
# Description: (§1) Expression levels of (A). Sestrin; (B). TNF and (C) GILZ normalized to DMSO controls for each cell line with the indicated single agent or combination.
# SU-DHL4 cells = experiment: RT2 Glucocorticoid signaling PCR array, SU-DHL4 (SUDHL4) cell line (Table 4f); type: cell-based; details: SUDHL4, 4 days, vs DMSO
# Description: as §1
structure (smiles),measurement,setting,value
"C[C@]12C=CC(=O)C=C1CC[C@@H]1[C@@H]2[C@@H](O)C[C@@]2(C)[C@H]1CC[C@]2(O)C(=O)CO [Prednisolone, prednisolone]","Fold Change, ADARB1",OCI-Ly19 cells; gene ADARB1,1.035
same,"Fold Change, AFF1",OCI-Ly19 cells; gene AFF1,1.235
same,"Fold Change, AK2",OCI-Ly19 cells; gene AK2,1.045
same,"Fold Change, AMPD3",OCI-Ly19 cells; gene AMPD3,1.078
same,"Fold Change, ANGPTL4",OCI-Ly19 cells; gene ANGPTL4,1.686
same,"Fold Change, ANXA4",OCI-Ly19 cells; gene ANXA4,0.877
same,"Fold Change, ARID68",OCI-Ly19 cells; gene ARID68,1.056
same,"Fold Change, ASPH",OCI-Ly19 cells; gene ASPH,0.787
same,"Fold Change, ATF4",OCI-Ly19 cells; gene ATF4,0.729
same,"Fold Change, BCL6",OCI-Ly19 cells; gene BCL6,0.847
same,"Fold Change, CEBPA",OCI-Ly19 cells; gene CEBPA,0.979
same,"Fold Change, CEBPB",OCI-Ly19 cells; gene CEBPB,0.622
same,Fold Change COL4A2,OCI-Ly19 cells; gene COL4A2,0.330
same,"Fold Change, CREB1",OCI-Ly19 cells; gene CREB1,0.959
same,"Fold Change, CREB3",OCI-Ly19 cells; gene CREB3,1.114
same,"Fold Change, CREB3L4",OCI-Ly19 cells; gene CREB3L4,0.900
same,Fold Change CTGF,OCI-Ly19 cells; gene CTGF,2.114
same,"Fold Change, DDIT4",OCI-Ly19 cells; gene DDIT4,2.255
same,"Fold Change, DUSP1",OCI-Ly19 cells; gene DUSP1,0.893
same,"Fold Change, EHD3",OCI-Ly19 cells; gene EHD3,1.709
same,"Fold Change, FK8PS",OCI-Ly19 cells; gene FK8PS,1.831
same,"Fold Change, FOSL2",OCI-Ly19 cells; gene FOSL2,1.395
same,"Fold Change, GDPD1",OCI-Ly19 cells; gene GDPD1,0.914
same,"Fold Change, GHRHR",OCI-Ly19 cells; gene GHRHR,6.075
same,Fold Change GLUL,OCI-Ly19 cells; gene GLUL,1.064
same,"Fold Change, GOT1",OCI-Ly19 cells; gene GOT1,0.937
same,"Fold Change, H6PD",OCI-Ly19 cells; gene H6PD,1.398
same,"Fold Change, HNRPLL",OCI-Ly19 cells; gene HNRPLL,1.114
same,"Fold Change, KLF9",OCI-Ly19 cells; gene KLF9,2.971
same,"Fold Change, KLF13",OCI-Ly19 cells; gene KLF13,1.053
same,"Fold Change, LOX",OCI-Ly19 cells; gene LOX,2.264
same,Fold Change MERTK,OCI-Ly19 cells; gene MERTK,1.212
same,Fold Change MTZA,OCI-Ly19 cells; gene MTZA,1.124
same,"Fold Change, NFKBIA",OCI-Ly19 cells; gene NFKBIA,0.971
same,"Fold Change, NR3C1",OCI-Ly19 cells; gene NR3C1,1.219
same,Fold Change PDCC7,OCI-Ly19 cells; gene PDCC7,0.042
same,Fold Change PDGFRB,OCI-Ly19 cells; gene PDGFRB,4.731
same,"Fold Change, PDP1",OCI-Ly19 cells; gene PDP1,1.340
same,"Fold Change, PER1",OCI-Ly19 cells; gene PER1,0.833
same,"Fold Change, PIK3R1",OCI-Ly19 cells; gene PIK3R1,1.086
same,"Fold Change, PLEKHF1",OCI-Ly19 cells; gene PLEKHF1,0.908
same,"Fold Change, POU2F1",OCI-Ly19 cells; gene POU2F1,0.967
same,"Fold Change, POU2F2",OCI-Ly19 cells; gene POU2F2,1.489
same,"Fold Change, RASA3",OCI-Ly19 cells; gene RASA3,0.994
same,"Fold Change, RGS2",OCI-Ly19 cells; gene RGS2,0.763
same,"Fold Change, RHOB",OCI-Ly19 cells; gene RHOB,3.394
same,"Fold Change, SESN1",OCI-Ly19 cells; gene SESN1,0.972
same,"Fold Change, SGK1",OCI-Ly19 cells; gene SGK1,2.225
same,"Fold Change, SLC10A6",OCI-Ly19 cells; gene SLC10A6,1.291
same,"Fold Change, SLC19A2",OCI-Ly19 cells; gene SLC19A2,0.753
same,"Fold Change, SLC22A5",OCI-Ly19 cells; gene SLC22A5,0.849
same,"Fold Change, SNTA1",OCI-Ly19 cells; gene SNTA1,0.921
same,"Fold Change, SPHK1",OCI-Ly19 cells; gene SPHK1,0.985
same,"Fold Change, SPSB1",OCI-Ly19 cells; gene SPSB1,0.765
same,"Fold Change, STAT5A",OCI-Ly19 cells; gene STAT5A,1.045
same,"Fold Change, STAT5B",OCI-Ly19 cells; gene STAT5B,0.796
same,"Fold Change, TBL1XR1",OCI-Ly19 cells; gene TBL1XR1,1.176
same,"Fold Change, TNF",OCI-Ly19 cells; gene TNF,1.709
same,"Fold Change, TNFAIP3",OCI-Ly19 cells; gene TNFAIP3,0.841
same,"Fold Change, TSC22D3",OCI-Ly19 cells; gene TSC22D3,3.238
same,"Fold Change, USP2",OCI-Ly19 cells; gene USP2,1.500
same,"Fold Change, USPS4",OCI-Ly19 cells; gene USPS4,0.820
same,"Fold Change, VDR",OCI-Ly19 cells; gene VDR,1.659
same,"Fold Change, VLDLR",OCI-Ly19 cells; gene VLDLR,0.945
same,"Fold Change, ZHX3",OCI-Ly19 cells; gene ZHX3,1.659
same,"Fold Change, ZNF281",OCI-Ly19 cells; gene ZNF281,0.547
same,"Fold Change, ADARB1",SU-DHL4 cells,1.430
same,"Fold Change, AFF1",SU-DHL4 cells,1.346
same,"Fold Change, AK2",SU-DHL4 cells,2.108
same,"Fold Change, AMPD3",SU-DHL4 cells,1.854
same,"Fold Change, ANGPTL4",SU-DHL4 cells,2.066
same,"Fold Change, ANXA4",SU-DHL4 cells,1.853
same,"Fold Change, ARID68",SU-DHL4 cells,1.095
same,"Fold Change, ASPH",SU-DHL4 cells,1.367
same,"Fold Change, ATF4",SU-DHL4 cells,1.213
same,"Fold Change, BCL6",SU-DHL4 cells,1.733
same,"Fold Change, CEBPA",SU-DHL4 cells,1.232
same,"Fold Change, CEBPB",SU-DHL4 cells,0.694
same,"Fold Change, CREB1",SU-DHL4 cells,1.462
same,"Fold Change, CREB3",SU-DHL4 cells,1.474
same,"Fold Change, CREB3L4",SU-DHL4 cells,1.148
same,"Fold Change, CYB561",SU-DHL4 cells,1.647
same,"Fold Change, DDIT4",SU-DHL4 cells,3.813
same,"Fold Change, DUSP1",SU-DHL4 cells,2.133
same,"Fold Change, EHD3",SU-DHL4 cells,2.505
same,"Fold Change, FK8PS",SU-DHL4 cells,2.994
same,"Fold Change, GDPD1",SU-DHL4 cells,1.328
same,"Fold Change, GHRHR",SU-DHL4 cells,0.880
same,"Fold Change, H6PD",SU-DHL4 cells,0.895
same,"Fold Change, HNRPLL",SU-DHL4 cells,1.219
same,"Fold Change, IL6R",SU-DHL4 cells,1.438
same,"Fold Change, IL10",SU-DHL4 cells,1.094
same,"Fold Change, KLF9",SU-DHL4 cells,1.767
same,"Fold Change, KLF13",SU-DHL4 cells,1.911
same,"Fold Change, MT2A",SU-DHL4 cells,0.914
same,"Fold Change, NFKBIA",SU-DHL4 cells,1.636
same,"Fold Change, NR3C1",SU-DHL4 cells,1.344
same,"Fold Change, PDCD7",SU-DHL4 cells,0.756
same,"Fold Change, PDP1",SU-DHL4 cells,1.435
same,"Fold Change, PER1",SU-DHL4 cells,1.724
same,"Fold Change, PER2",SU-DHL4 cells,2.145
same,"Fold Change, PIK3R1",SU-DHL4 cells,1.856
same,"Fold Change, PLEKHF1",SU-DHL4 cells,2.437
same,"Fold Change, POU2F1",SU-DHL4 cells,1.349
same,"Fold Change, POU2F2",SU-DHL4 cells,1.597
same,"Fold Change, RASA3",SU-DHL4 cells,1.651
same,"Fold Change, RGS2",SU-DHL4 cells,1.294
same,"Fold Change, RHOB",SU-DHL4 cells,0.605
same,"Fold Change, SGK1",SU-DHL4 cells,1.271
same,"Fold Change, SLC10A6",SU-DHL4 cells,14.662
same,"Fold Change, SLC19A2",SU-DHL4 cells,1.993
same,"Fold Change, SLC22A5",SU-DHL4 cells,1.126
same,"Fold Change, SNTA1",SU-DHL4 cells,1.610
same,"Fold Change, SPHK1",SU-DHL4 cells,0.795
same,"Fold Change, SPSB1",SU-DHL4 cells,0.954
same,"Fold Change, STAT5A",SU-DHL4 cells,1.309
same,"Fold Change, STAT5B",SU-DHL4 cells,1.204
same,"Fold Change, TBL1XR1",SU-DHL4 cells,1.648
same,"Fold Change, TNF",SU-DHL4 cells,7.185
same,"Fold Change, TNFAIP3",SU-DHL4 cells,0.559
same,"Fold Change, TSC22D3",SU-DHL4 cells,4.497
same,"Fold Change, USP2",SU-DHL4 cells,3.207
same,"Fold Change, USPS4",SU-DHL4 cells,2.085
same,"Fold Change, VDR",SU-DHL4 cells,1.994
same,"Fold Change, VLDLR",SU-DHL4 cells,0.438
same,"Fold Change, ZFP36",SU-DHL4 cells,1.455
same,"Fold Change, ZHX3",SU-DHL4 cells,1.825
same,"Fold Change, ZNF281",SU-DHL4 cells,1.692
